Literature values in patent US20230172920A1, “DOSING REGIMEN FOR TREATING A DISEASE MODULATED BY CSF-1R” (Novartis AG, priority 2020, published 2023).

Conditions: human, in vivo; cited from earlier work

emactuzumab: monoclonal antibody against CSF-1R
serum enzyme increases in clinical trials: Asymptomatic serum enzyme increases
